Laboratory results published in article PMC10108392, “Rimonabant-Based Compounds Bearing Hydrophobic Amino Acid Derivatives as Cannabinoid Receptor Subtype 1 Ligands” (ACS Medicinal Chemistry Letters, 2023).

Amino acid sequences for entries named in this document (tags omitted).
UniProt P20272, whole entry: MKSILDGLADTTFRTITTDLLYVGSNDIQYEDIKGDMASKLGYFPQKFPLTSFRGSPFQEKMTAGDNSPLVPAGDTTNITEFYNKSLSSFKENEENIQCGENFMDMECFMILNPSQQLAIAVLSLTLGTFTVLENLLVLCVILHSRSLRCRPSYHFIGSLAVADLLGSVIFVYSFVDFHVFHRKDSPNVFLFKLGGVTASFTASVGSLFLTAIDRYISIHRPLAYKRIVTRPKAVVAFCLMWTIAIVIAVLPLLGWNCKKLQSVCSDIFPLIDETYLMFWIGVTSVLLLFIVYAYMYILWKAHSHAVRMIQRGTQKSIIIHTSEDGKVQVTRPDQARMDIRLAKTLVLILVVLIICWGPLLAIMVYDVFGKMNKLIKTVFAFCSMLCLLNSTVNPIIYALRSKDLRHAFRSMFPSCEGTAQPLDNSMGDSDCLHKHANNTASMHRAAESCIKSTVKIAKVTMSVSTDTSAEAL

Biological target: T1, CB1R (Rattus norvegicus, UniProt P20272)
T1 construct: Crude membrane fractions were prepared from the brain; from tissue; host or cells: Wistar rat whole brain, crude membrane fraction
Experiment: Ligand stimulated [35S]GTPγS binding assay in rat brain membranes
Assay type: biochemical
Settings: read-out: [35S]GTPγS stimulation Emax
Method: Our novel chemical compounds were tested in vitro for their binding ability, efficacy, and potency on CB1R in rat brain membrane homogenate (Table 2 and SI, Figure S1). CB1Rs are the most abundant G-protein coupled receptors in the rodent and mammalian brain; therefore, this is an appropriate model to characterize our ligands in a more physiological system.
In Vitro Biological Assays
Preparation of Brain Membrane Homogenates
Wistar rats were locally bred and handled according to the EU Directive 2010/63/EU and to the Regulations on Animal Protection (40/2013. (II. 14.) Korm. r.) of Hungary. Crude membrane fractions were prepared from the brain. Brains were quickly removed from the euthanized rats and directly put in an ice-cold 50 mM Tris-HCl buffer (pH 7.4). The collected tissue was then homogenized in 30 volumes (v/w) of an ice-cold buffer with a Braun Teflon-glass homogenizer at the highest rpm. The homogenate was centrifuged at 20,000 × g for 25 min, and the resulting pellet was suspended in the same volume of a cold buffer followed by incubation at 37 °C for 30 min to remove endogenous ligands. Centrifugation was then repeated. The final pellets were taken up in five volumes of a 50 mM Tris-HCl (pH 7.4) buffer containing 0.32 M sucrose and stored at -80 °C. Prior to the experiment, aliquots were thawed and centrifuged at 20,000 ×g for 25 min and then they were resuspended in 50 mM Tris-HCl (pH 7.4), homogenized with a Douncer, followed by the determination of the protein concentration by the method of Bradford. The membrane suspensions were immediately used either in radioligand binding experiments or in [35S]GTPγS functional assays. […]
was terminated by diluting the samples with an ice-cold wash buffer (50 mM of Tris-HCl, 2.5 mM of EGTA, 5 mM of MgCl2, 0.5% fatty acid free BSA, pH 7.4), followed by repeated washing and rapid filtration through Whatman GF/B glass fiber filters (Whatman Ltd., Maidstone, UK) pre-soaked with 0.1% polyethyleneimine (30 min before the filtration). Filtration was performed with a 24-well Brandel Cell Harvester (Gaithersburg, MD, USA). Filters were air-dried and immersed into Ultima Gold MV scintillation cocktail, and then radioactivity was measured with a TRI-CARB 2100TR liquid scintillation analyzer (Packard, Perkin Elmer, Waltham, MA, USA).
Ligand Stimulated [35S]GTPγS Binding Assay
Rat brain membranes (30 µg protein/tube), prepared as described above, were incubated with 0.05 nM of […]
mM of NaCl, 3 mM of MgCl2 and 1 mM of EGTA in a 50 mM Tris-HCl buffer (pH 7.4) for 60 min at 30 °C. Basal [35S]GTPγS binding was measured in the absence of ligands and set as 100%. Nonspecific […]
binding was determined by the addition of 10 µM unlabelled GTPγS and subtracted from total binding.
Incubation, filtration and radioactivity measurements of the samples were carried out as described above. […]
All

`CC(C)[C@H](NC(=O)c1cc(-n2cccc2)n(-c2ccc(Cl)cc2)n1)C(=O)O` [Compound 1, RS2689-Val-OH] and `CC(C)[C@H](NC(=O)c1cc(-n2cccc2)n(-c2ccc(Cl)cc2)n1)C(N)=O` [Compound 11, RS2689-Val-NH2] are within error of each other in Emax: 63 ± 13% for the first, 68 ± 9% for the second.

Going from `CC(C)(C)[C@H](NC(=O)c1cc(-n2cccc2)n(-c2ccc(Cl)cc2)n1)C(=O)O` [Compound 2, RS2689-tLeu-OH] to `CC(C)(C)[C@H](NC(=O)c1cc(-n2cccc2)n(-c2ccc(Cl)cc2)n1)C(N)=O` [Compound 12, RS2689-tLeu-NH2], the Emax rises from 74 ± 2.5% to 101 ± 1.8%.

First: Cc1c(C(=O)N[C@H](C(=O)O)C(C)C)nn(-c2ccc(Cl)cc2)c1-n1cccc1 [Compound 3, RS2691-Val-OH]
Second: Cc1c(C(=O)N[C@H](C(N)=O)C(C)C)nn(-c2ccc(Cl)cc2)c1-n1cccc1 [Compound 13, RS2691-Val-NH2]
The Emax of the first is lower: 51 ± 5.6% for the first, 97 ± 6% for the second.

`Cc1c(C(=O)N[C@H](C(=O)O)C(C)(C)C)nn(-c2ccc(Cl)cc2)c1-n1cccc1` [Compound 4, RS2691-tLeu-OH] and `Cc1c(C(=O)N[C@H](C(=O)O)C(C)(C)C)nn(-c2ccccc2)c1-n1cccc1` [Compound 8, RS2709-tLeu-OH] are within error of each other in Emax: 66 ± 10% for the first, 74 ± 14% for the second.

First: CC(C)[C@H](NC(=O)c1cc(-n2cccc2)n(-c2ccccc2)n1)C(=O)O [Compound 5, RS2708-Val-OH]
Second: CC(C)[C@H](NC(=O)c1cc(-n2cccc2)n(-c2ccccc2)n1)C(N)=O [Compound 15, RS2708-Val-NH2]
The Emax of the first is higher: 79 ± 4.9% for the first, 53 ± 3.8% for the second.

`CC(C)(C)[C@H](NC(=O)c1cc(-n2cccc2)n(-c2ccccc2)n1)C(=O)O` [Compound 6, RS2708-tLeu-OH] and `CC(C)(C)[C@H](NC(=O)c1cc(-n2cccc2)n(-c2ccccc2)n1)C(N)=O` [Compound 16, RS2708-tLeu-NH2] are within error of each other in Emax: 80 ± 7.3% for the first, 76 ± 4% for the second.

Compared with `Cc1c(C(=O)N[C@H](C(=O)O)C(C)C)nn(-c2ccccc2)c1-n1cccc1` [Compound 7, RS2709-Val-OH], `Cc1c(C(=O)N[C@H](C(N)=O)C(C)C)nn(-c2ccccc2)c1-n1cccc1` [Compound 17, RS2709-Val-NH2] is lower in Emax: 82 ± 18% for the first, 46 ± 12% for the second.

`Cc1c(C(=O)N[C@H](C(=O)O)C(C)C)nn(-c2ccc(Cl)cc2Cl)c1-n1cccc1Cl` [Compound 9, RS3516-Val-OH] and `CNC(=O)[C@@H](NC(=O)c1nn(-c2ccc(Cl)cc2Cl)c(-n2cccc2Cl)c1C)C(C)C` [Compound 39, RS3516-Val-NHCH3] are within error of each other in Emax: 50 ± 15% for the first, 47 ± 8% for the second.

`Cc1c(C(=O)N[C@H](C(=O)O)C(C)(C)C)nn(-c2ccc(Cl)cc2Cl)c1-n1cccc1Cl` [Compound 10, RS3516-tLeu-OH] and `COC(=O)[C@@H](NC(=O)c1nn(-c2ccc(Cl)cc2Cl)c(-n2cccc2Cl)c1C)C(C)(C)C` [Compound 30, RS3516-tLeu-OCH3] are within error of each other in Emax: 49 ± 10% for the first, 48 ± 8% for the second.

Going from `COC(=O)[C@@H](NC(=O)c1nn(-c2ccc(Cl)cc2)c(-n2cccc2)c1C)C(C)C` [Compound 23, RS2691-Val-OCH3] to `CNC(=O)[C@@H](NC(=O)c1nn(-c2ccc(Cl)cc2)c(-n2cccc2)c1C)C(C)C` [Compound 33, RS2691-Val-NHCH3], the Emax rises from 45 ± 13% to 94 ± 2%.

First: COC(=O)[C@@H](NC(=O)c1cc(-n2cccc2)n(-c2ccccc2)n1)C(C)C [Compound 25, RS2708-Val-OCH3]
Second: CNC(=O)[C@@H](NC(=O)c1cc(-n2cccc2)n(-c2ccccc2)n1)C(C)C [Compound 35, RS2708-Val-NHCH3]
The Emax of the first is lower: 54 ± 5% for the first, 76 ± 9% for the second.

First: COC(=O)[C@@H](NC(=O)c1nn(-c2ccccc2)c(-n2cccc2)c1C)C(C)C [Compound 27, RS2709-Val-OCH3]
Second: CNC(=O)[C@@H](NC(=O)c1cc(-n2cccc2)n(-c2ccccc2)n1)C(C)(C)C [Compound 36, RS2708-tLeu-NHCH3]
The Emax of the first is lower: 52 ± 7% for the first, 98 ± 1.6% for the second.

Going from `CNC(=O)[C@@H](NC(=O)c1cc(-n2cccc2)n(-c2ccc(Cl)cc2)n1)C(C)C` [Compound 31, RS2689-Val-NHCH3] to `CNC(=O)[C@@H](NC(=O)c1nn(-c2ccc(Cl)cc2Cl)c(-n2cccc2Cl)c1C)C(C)(C)C` [Compound 40, RS3516-tLeu-NHCH3], the Emax rises from 55 ± 5% to 77 ± 4%.
